Laboratory results published in PubChem BioAssay AID720543 (The Scripps Research Institute Molecular Screening Center, 2013).
The list shows a part of the results, in another mix than the full data. Active and inactive are the calls of the source.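 The calls were made as follows: active = inhibition exceeding the mean over every tested compound plus 3 SD (cut at about 30% in these data); inactive = the rest.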

The chains behind the UniProt entries cited, without tags or fusion partners.
UniProt Q8VD66, whole entry: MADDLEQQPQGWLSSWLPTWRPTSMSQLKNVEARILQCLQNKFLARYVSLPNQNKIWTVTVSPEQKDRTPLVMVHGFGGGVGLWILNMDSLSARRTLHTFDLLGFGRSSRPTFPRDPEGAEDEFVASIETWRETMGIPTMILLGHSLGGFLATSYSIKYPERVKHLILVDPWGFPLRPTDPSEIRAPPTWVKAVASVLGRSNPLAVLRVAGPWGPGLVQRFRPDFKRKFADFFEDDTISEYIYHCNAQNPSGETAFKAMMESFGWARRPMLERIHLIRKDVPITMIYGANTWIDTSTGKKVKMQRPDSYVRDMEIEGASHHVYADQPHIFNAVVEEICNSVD

Each compound was assayed against (Lyso)-N-acylphosphatidylethanolamine lipase (Mus musculus) (UniProt Q8VD66) (assay: mouse ABHD4 hydrolase activity blockers – biochemical, fluorescence polarization, primary screen (AID 720543;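 also: 0% = plate median of compound wells and 100% = S159A mutant with DMSO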)). Conditions: purified mABHD4, FP-Rh probe fluorescence polarization; at 8.92 µM; active compounds read high.
In short: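 Assay system: wild-type mouse ABHD4 protein; compound: single nominal dose of 8.92 µM, 0.89% DMSO final; schedule: 45 min + 60 min at 25 °C; measured by: FP readout, ex 525 nm / em 598 nm; evaluation: % inhibition of FP-Rh probe binding versus controls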

SMILES	inhibition
CCOc1ccc(C)cc1CN(CCCl)CCCl	inactive: 0.02%
CCCCOc1ccc(C(=O)NCC2(N3CCOCC3)CCCCC2)cc1	inactive: 3.47%
O=P1(N(CCCl)CCCl)SCCCS1	inactive: 0.08%
CCCCn1nnnc1C(c1cc2ccccc2o1)N1CCC(n2c(=O)[nH]c3ccccc32)CC1 (stereo not given)	inactive: -5.21%
O=C(NCC1(N2CCCCC2)CCCCC1)c1ccc(F)cc1	inactive: -2.54%
CCOC(=O)N1CCC(Nc2ccc(F)cc2)CC1	inactive: -11.6%
COc1ccc(NC2CCN(CCc3ccccc3)CC2)c(OC)c1	inactive: 1.37%
O=C(NCC1(N2CCCCC2)CCCCC1)c1ccc(Cl)nc1	inactive: 6.48%
O=c1[nH]c2ccccc2n1C1CCN(C(c2ccccc2OC(F)(F)F)c2nnnn2C2CCCCC2)CC1 (stereo not given)	inactive: 5.07%
Cc1cc(C)cc(N(C(=O)c2ccccc2)C2CCN(C(=O)OC(C)(C)C)CC2)c1	inactive: 6.45%
O=C(NCC1(N2CCOCC2)CCCCC1)c1cc2ccccc2o1	inactive: 6.68%
N#CC1(Nc2ccccc2)CCN(Cc2ccccc2)CC1	inactive: 1.84%
O=C(NCC1(N2CCCCC2)CCCCC1)c1ccc(Cl)s1	inactive: 7.81%
O=c1[nH]c2ccccc2n1C1CCN(C(c2cc3ccccc3o2)c2nnnn2C2CCCCC2)CC1 (stereo not given)	inactive: -4.76%
O=C(OC1CN2CCC1CC2)C1c2ccccc2Oc2ccccc21 (stereo not given)	inactive: -1.44%
COc1ccc(Cl)cc1C(=O)NCC1(N2CCOCC2)CCCCC1	inactive: -1.83%
CCOC(=O)N1CCC(Nc2ccc(OC)cc2)CC1	inactive: -3.05%
CCCCn1nnnc1C(c1ccc(OC)cc1)N1CCC(n2c(=O)[nH]c3ccccc32)CC1 (stereo not given)	inactive: -2.62%
COc1ccc(C(=O)NCC2(N3CCCCC3)CCCCC2)cc1	inactive: -2.48%
CC(C)(C)OC(=O)N1CCC(N(C(=O)c2ccccc2)c2ccc(F)cc2)CC1	inactive: 1.31%
COc1ccc(C(=O)NCC2(N3CCCCC3)CCCCC2)c(OC)c1OC	inactive: 2.34%
CCC(c1nnnn1C1CCCC1)N1CCC(n2c(=O)[nH]c3ccccc32)CC1 (stereo not given)	inactive: -1.65%
O=C(NCC1(N2CCCCC2)CCCCC1)c1ccc(=O)[nH]c1	inactive: -2.89%
O=C(NCC1(N2CCCCC2)CCCCC1)c1cccs1	inactive: 1.71%
CCCCn1nnnc1C(CC)N1CCC(n2c(=O)[nH]c3ccccc32)CC1 (stereo not given)	inactive: 3.44%
CCCCn1nnnc1C(c1cccs1)N1CCC(n2c(=O)[nH]c3ccccc32)CC1 (stereo not given)	inactive: -11.4%
CSc1ccccc1C(=O)NCC1(N2CCCCC2)CCCCC1	inactive: 2.5%
Cc1cccc(NC2(C#N)CCN(Cc3ccccc3)CC2)c1	inactive: -6.05%

SMILES	inhibition
CN1CCC(Nc2cccc(F)c2)CC1	inactive: 15.4%
O=C(NCC1(N2CCCCC2)CCCCC1)c1cncc(Br)c1	inactive: 0.42%
COc1ccc(C(c2nnnn2C2CCCC2)N2CCC(n3c(=O)[nH]c4ccccc43)CC2)cc1 (stereo not given)	inactive: 1.18%
Cc1ccc(C(=O)NCC2(N(C)C)CCCCC2)o1	inactive: 2.25%
CCCOc1ccc(C(=O)NCC2(N(C)C)CCCCC2)cc1OC	inactive: 7.77%
CC(C)c1ccc(NC2CCN(C(=O)OC(C)(C)C)CC2)cc1	inactive: 1.09%
COc1ccc(CN(CCCl)CCCl)cc1Cl	inactive: -9.68%
COC(=O)C1(Nc2ccccc2)CCN(Cc2ccccc2)CC1	inactive: -2.68%
CN(C)c1cccc(C(=O)NCC2(N3CCCCC3)CCCCC2)c1	inactive: 3.64%
COc1cc(OC)c(C(=O)NCC2(N(C)C)CCCCC2)cc1OC	inactive: -1.25%
CCC(c1nnnn1C(C)(C)C)N1CCC(n2c(=O)[nH]c3ccccc32)CC1 (stereo not given)	inactive: -1%
O=C(NCC1(N2CCOCC2)CCCCC1)c1cc(F)c(F)cc1Cl	inactive: 1.86%
CCCCn1nnnc1C(c1ccnc2ccccc12)N1CCC(n2c(=O)[nH]c3ccccc32)CC1 (stereo not given)	inactive: -3.94%
O=C(NCC1(N2CCCCC2)CCCCC1)c1cccc(C(F)(F)F)c1	inactive: 6.45%
O=C(NCC1(N2CCOCC2)CCCCC1)c1cc(=O)[nH]c2ccccc12	inactive: 3.42%
COc1cc(C(=O)NCC2(N3CCCCC3)CCCCC2)ccc1OC(F)F	inactive: 2.11%
CC(C)c1ccc(C(=O)NCC2(N3CCOCC3)CCCCC2)cc1	inactive: -6.48%
COc1ccc(NC2CCN(C(=O)OC(C)(C)C)CC2)cc1	inactive: -5.73%
CN1CCN(CCOC(=O)C(O)(c2ccccc2)c2ccccc2)CC1	inactive: 7.09%
CCCCn1nnnc1C(c1cccc2ccccc12)N1CCC(n2c(=O)[nH]c3ccccc32)CC1 (stereo not given)	inactive: -30.6%
CC(C)(C)n1nnnc1C(c1ccccc1OC(F)(F)F)N1CCC(n2c(=O)[nH]c3ccccc32)CC1 (stereo not given)	inactive: -1.62%
O=C(NCC1(N2CCCCC2)CCCCC1)c1ccc(OC(F)F)cc1	inactive: 4.51%
CCN1CCC(Nc2ccc(Cl)cc2)CC1	inactive: -12%
O=c1[nH]c2ccccc2n1C1CCN(C(c2ccccc2OC(F)(F)F)c2nnnn2C2CCCC2)CC1 (stereo not given)	inactive: -6.97%
N#CC1(Nc2ccccc2)CCN(CCc2ccccc2)CC1	inactive: 2.49%
CSc1ccc(C(=O)NCC2(N3CCOCC3)CCCCC2)cc1	inactive: -8.88%
O=C(NCC1(N2CCCCC2)CCCCC1)c1cccc([N+](=O)[O-])c1	inactive: 7.7%
